Measured melting point values of organic chemicals

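The numbers are reported measurements, compiled and curated for the OPERA QSAR suite. A listed value is a point estimate from one report or more. Method, purity and exact conditions of the single measurements are not given. Where a salt, mixture or single isomer is drawn, the source does not say that exactly this form was tested. Some upstream entries may be estimates or bounds without being marked so.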

Melting points are in °C.
"–" marks a cell with nothing listed here.

| mp (°C) | SMILES | name |
|---|---|---|
| 185 | COc1ccc(C(=O)Nc2ccccc2C(=O)O)cc1 | 2-[(4-methoxybenzoyl)amino]benzoic Acid |
| 122 | Cc1nc2ccccc2nc1CCl | 2-(chloromethyl)-3-methylquinoxaline |
| 175 | CC(=O)c1sc2nc(C)cc(C)c2c1N | 1-(3-Amino-4,6-dimethylthieno[2,3-b]pyridin-2-yl)ethan-1-one |
| 168 | COc1cccc(-n2cn[nH]c2=S)c1 | 4-(3-methoxyphenyl)-4H-1,2,4-triazole-3-thiol |
| 123 | CC(=O)c1ccc(OCC(=O)N2CCCC2)cc1 | Acetophenone, 4'-pyrrolidinylcarbonylmethoxy- |
| 106 | O=C1CC2(CCCC2)C(=O)N1 | 2-azaspiro[4.4]nonane-1,3-dione |
| 144 | CS(=O)(=O)NC1CCNCC1 | N-(Piperidin-4-yl)methanesulfonamide |
| 180 | CN1c2ccccc2C(C)(C)C12C=Cc1cc([N+](=O)[O-])ccc1O2 (stereo not drawn) | – |
| 149 | N#Cc1ccccc1P(c1ccccc1)c1ccccc1 | Benzonitrile, 2-(diphenylphosphino)- |
| 153 | Cc1n[nH]c(C)c1CC(=O)O | (3,5-Dimethyl-1H-pyrazol-4-yl)acetic acid |
| 132 | COc1ccc(C(=O)Nc2ccccc2CCC2CCCCN2C)cc1.Cl (stereo not drawn) | Encainide hydrochloride |
| 107 | O=C(O)CCn1cnc2ccccc21 | 3-(1H-Benzimidazol-1-yl)propanoic acid |
| 205 | COc1ccc(-c2nc(C(=O)O)cs2)cc1OC | 2-(3,4-dimethoxyphenyl)-1,3-thiazole-4-carboxylic Acid |
| 215 | COC(=O)c1c[nH]c(=O)c([N+](=O)[O-])c1 | Methyl 5-nitro-6-oxo-1,6-dihydropyridine-3-carboxylate |
| 173 | Sc1nncn1-c1ccccc1 | 4-Phenyl-4H-1,2,4-triazole-3-thiol |
| 202 | c1csc(-c2nn[nH]n2)c1 | 5-(Thiophen-2-yl)-2H-tetrazole |
| 157 | Nc1cc(=O)cc[nH]1 | 2-amino-4-hydroxypyridine |
| 52 | NCc1ccc(OCc2ccccc2)cc1 | 4-Benzyloxybenzylamine |
| 165 | CC(O)C[N+](C)(C)C.[Cl-] (stereo not drawn) | 1-Propanaminium, 2-hydroxy-N,N,N-trimethyl-, chloride (1:1) |
| 229 | O=C(O)c1ccc2nc(Cl)ccc2c1 | 2-Chloroquinoline-6-carboxylic acid |
| 224 | NC(=O)COc1cccc(C(=O)O)c1 | 3-(2-amino-2-oxoethoxy)benzoic acid |
| 99 | COc1cc(C=O)ccc1OCC(=O)N1CCOCC1 | 3-Methoxy-4-(2-morpholin-4-yl-2-oxo-ethoxy)-benzaldehyde |
| 176 | O=C(c1cc(Cl)nc2ccccc12)N1CCOCC1 | (2-Chloroquinolin-4-yl)(morpholin-4-yl)methanone |
| 200 | NS(=O)(=O)c1cc(Br)ccc1Br | 2,5-dibromobenzenesulfonamide |
| -14.4 | CCCCCCCCCCCCCCCCCC[N+](C)(C)CCC[Si](OC)(OC)OC.[Cl-] | – |
| 136 | O=C(O)C1(c2cccc(Cl)c2)CC1 | 1-(3-Chlorophenyl)cyclopropane-1-carboxylic acid |
| 298 | O=C(O)c1ccc(CS(=O)(=O)c2ccccc2)cc1 | 4-[(Benzenesulfonyl)methyl]benzoic acid |
| 174 | NC(=O)C1CCCC1 | Cyclopentanecarboxamide |
| 143 | O=C(O)COc1ccc(F)cc1Br | (2-Bromo-4-fluoro-phenoxy)-acetic acid |
| 124 | CC(=O)Nc1ccc([N+](=O)[O-])cc1[N+](=O)[O-] | 2',4'-Dinitroacetanilide |
| 191 | CC(=O)Nc1cc2ccccc2cc1C(=O)O | 3-(acetylamino)-2-naphthoic acid |
| 103 | Cc1ccc(-n2c(C)cc(C=O)c2C)cc1 | 2,5-Dimethyl-1-(4-methylphenyl)-1H-pyrrole-3-carbaldehyde |
| 146 | O=C(O)CCOc1ccc(Br)cc1 | 3-(4-bromophenoxy)propanoic acid |
| 214 | O=C1NC(=O)N(c2ccccc2)C1=O | 1-phenylimidazolidine-2,4,5-trione |
| 217 | Cc1ccc(C)c(-c2n[nH]c(=O)c3ccccc23)c1 | 4-(2,5-Dimethylphenyl)phthalazin-1(2H)-one |
| 102 | Nc1sc2c(c1-c1nc3ccccc3s1)CCCC2 | – |
| 206.1 | N[C@@H](CCC(=O)NNc1ccc(CO)cc1)C(=O)O | Agaritine |
| 306 | Cc1nn2c(=S)[nH][nH]c2nc1=O | – |

Excerpt, the final 3 entries:

{"smiles": "Nc1sc2c(c1-c1nc3ccccc3s1)CCCC2", "mp (°C)": "102"}
{"smiles": "N[C@@H](CCC(=O)NNc1ccc(CO)cc1)C(=O)O", "name": "Agaritine", "mp (°C)": "206.1"}
{"smiles": "Cc1nn2c(=S)[nH][nH]c2nc1=O", "mp (°C)": "306"}

Values as listed in the OPERA 2.9 repository of K. Mansouri.